Among the data in article PMC3391290 are EC50 of total cellular cAMP (RIA), HEK293-hTSHR cells, 15 min and Kd values, retold here.

Test [1] has as its target human TSH receptor, wild type (hTSHR) (human) (UniProt P16473).
Test [2] has the same target. Put plainly: radioligand binding; radioreceptor assay: membrane preparation (10 µg) of the HEK293-hTSHR stable line, unlabelled hTSH/bTSH varied against 0.14 nM 125I-hTSH/bTSH, 37°C, 2 h, 250 µl, PEG 6000 separation; Kd by Cheng-Prusoff for the homologous tracer.

Substance “bovine thyroid stimulating hormone (bTSH) (from UniProt P01217 25-120; P01223 21-132) (ligand)” had an EC50 of total cellular cAMP (RIA), HEK293-hTSHR cells, 15 min at 37°C in test [1] of 0.07 nM.

“bovine thyroid stimulating hormone (bTSH) (from UniProt P01217 25-120; P01223 21-132) (ligand; other documents disagree on this pair)”: in test [2], the Kd (commonly a measure of binding affinity in units of concentration) is 0.24 nM.
